We go through five compounds from PMC9636434, “Discovery of small molecule agonists of the Relaxin Family Peptide Receptor 2” (Communications Biology, 2022).

Protein sequences, listed by entry. Tags and fused reporters are not part of them. Residues count along the entry.
UniProt P30542, whole entry: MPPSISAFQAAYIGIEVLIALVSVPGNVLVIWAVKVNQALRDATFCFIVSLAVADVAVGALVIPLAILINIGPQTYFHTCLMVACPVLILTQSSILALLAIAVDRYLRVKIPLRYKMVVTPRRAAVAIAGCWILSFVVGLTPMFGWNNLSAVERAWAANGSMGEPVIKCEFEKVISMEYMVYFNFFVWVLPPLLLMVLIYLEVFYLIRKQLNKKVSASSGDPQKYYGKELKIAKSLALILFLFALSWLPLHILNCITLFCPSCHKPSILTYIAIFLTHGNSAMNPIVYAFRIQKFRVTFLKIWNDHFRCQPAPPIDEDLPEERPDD
UniProt P22888, 27-699: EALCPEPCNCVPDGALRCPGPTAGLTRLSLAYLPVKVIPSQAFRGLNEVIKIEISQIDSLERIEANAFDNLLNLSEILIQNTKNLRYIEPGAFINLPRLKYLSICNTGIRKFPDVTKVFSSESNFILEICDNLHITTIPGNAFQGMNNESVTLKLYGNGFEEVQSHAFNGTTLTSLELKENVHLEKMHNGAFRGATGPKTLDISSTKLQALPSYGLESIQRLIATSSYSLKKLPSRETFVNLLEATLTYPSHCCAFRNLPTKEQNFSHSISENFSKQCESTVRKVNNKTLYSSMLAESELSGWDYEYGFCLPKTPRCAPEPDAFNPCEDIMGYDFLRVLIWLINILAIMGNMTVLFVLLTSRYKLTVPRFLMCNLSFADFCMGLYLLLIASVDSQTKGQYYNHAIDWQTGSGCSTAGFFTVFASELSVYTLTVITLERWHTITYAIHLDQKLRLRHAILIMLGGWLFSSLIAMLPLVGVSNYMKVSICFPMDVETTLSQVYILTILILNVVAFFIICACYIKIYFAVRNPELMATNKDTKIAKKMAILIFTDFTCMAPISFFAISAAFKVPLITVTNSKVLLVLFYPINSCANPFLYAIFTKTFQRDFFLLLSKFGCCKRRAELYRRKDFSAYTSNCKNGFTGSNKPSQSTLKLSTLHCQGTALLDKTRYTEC

“And” between values parts separate entries of the source, which are not always exact repeats. Identical values can stand only once.

Holding throughout (format): cell-based
The target in assay [1] is T1, human ADORA1 (Homo sapiens, UniProt P30542). Kind of assay: PRESTO-Tango β-arrestin recruitment, ADORA1 transfected HTLA cells. To be noted: replicates (1)-(4).
In assay [2] the target is T1, human ADORA1. The assay can be described thus: GloSensor cAMP inhibition assay in ADORA1 transiently transfected HEK293T cells. As to conditions: replicates (1)-(4).
In assay [3] the target is T2, human PTHR1 (Homo sapiens, UniProt Q03431).
T2 sequence (Q03431 27-593): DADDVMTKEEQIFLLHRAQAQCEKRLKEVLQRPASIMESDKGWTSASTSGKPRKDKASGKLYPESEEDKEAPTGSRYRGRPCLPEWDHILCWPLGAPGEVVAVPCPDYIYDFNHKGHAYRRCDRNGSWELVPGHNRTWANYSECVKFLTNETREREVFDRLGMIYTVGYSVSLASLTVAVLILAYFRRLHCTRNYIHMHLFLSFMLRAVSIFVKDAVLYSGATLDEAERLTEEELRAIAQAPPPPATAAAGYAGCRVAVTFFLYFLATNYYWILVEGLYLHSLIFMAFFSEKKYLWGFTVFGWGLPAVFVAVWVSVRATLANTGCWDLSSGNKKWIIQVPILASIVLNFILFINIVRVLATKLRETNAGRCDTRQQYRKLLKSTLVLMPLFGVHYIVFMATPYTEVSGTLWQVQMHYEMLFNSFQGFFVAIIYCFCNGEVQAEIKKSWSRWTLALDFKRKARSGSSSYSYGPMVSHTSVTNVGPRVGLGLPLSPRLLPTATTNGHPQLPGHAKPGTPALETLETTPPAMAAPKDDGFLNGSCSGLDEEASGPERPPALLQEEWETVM
Kind of assay: HitHunter cAMP XS+ assay, cAMP Hunter cell line PTHR1. As to conditions: replicates (1),(2). The text has this: (§1) Results are reported as raw RLU values and represent the
(§2) mean ± SEM of 2 technical replicates.

In assay [4] the target is human LHCGR (Homo sapiens, UniProt P22888). The assay can be described thus: HitHunter cAMP XS+ assay, cAMP Hunter cell line LHCGR. As to conditions: replicates (1),(2).
Excerpt: as §1, §2

Assay [5] concerns the target human TSHR (Homo sapiens, UniProt P16473). The assay can be described thus: HitHunter cAMP XS+ assay, cAMP Hunter cell line TSHR. To be noted: replicates (1),(2).
Excerpt: as §1, §2

Assay [6] has as its target T3, human FSHR (Homo sapiens, UniProt P23945).
T3 sequence (P23945 18-695): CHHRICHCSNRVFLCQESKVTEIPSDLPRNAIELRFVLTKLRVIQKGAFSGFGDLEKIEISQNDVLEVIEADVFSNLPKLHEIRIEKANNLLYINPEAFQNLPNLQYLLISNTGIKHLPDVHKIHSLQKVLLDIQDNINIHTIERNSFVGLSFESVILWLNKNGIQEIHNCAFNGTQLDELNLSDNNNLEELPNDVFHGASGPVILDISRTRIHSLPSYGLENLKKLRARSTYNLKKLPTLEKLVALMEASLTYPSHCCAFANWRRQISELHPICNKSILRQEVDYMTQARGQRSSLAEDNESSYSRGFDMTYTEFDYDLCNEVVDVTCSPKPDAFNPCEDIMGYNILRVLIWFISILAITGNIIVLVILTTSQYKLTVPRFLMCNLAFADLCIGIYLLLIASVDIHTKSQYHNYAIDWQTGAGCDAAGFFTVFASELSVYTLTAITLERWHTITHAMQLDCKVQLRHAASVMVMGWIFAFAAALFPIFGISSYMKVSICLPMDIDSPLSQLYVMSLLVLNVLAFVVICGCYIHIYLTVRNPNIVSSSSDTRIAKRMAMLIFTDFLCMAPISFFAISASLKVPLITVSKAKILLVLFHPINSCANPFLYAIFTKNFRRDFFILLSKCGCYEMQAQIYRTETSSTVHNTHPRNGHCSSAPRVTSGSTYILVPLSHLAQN
The assay can be described thus: HitHunter cAMP XS+ assay, cAMP Hunter cell line FSHR. As to conditions: replicates (1),(2).
Excerpt: as §1, §2

`CCNC(=O)[C@H]1O[C@@H](n2cnc3c(N)ncnc32)[C@H](O)[C@@H]1O` [NECA, 5′-(N-Ethylcarboxamido)adenosine, reference compound]: the RLU is 54613.2 RLU and 47969.8 RLU and 51710.1 RLU and 49000.1 RLU in assay [1] (Log [M] -4.52); 45093.2 RLU and 42154.9 RLU and 45163.5 RLU and 49770.8 RLU in assay [1] (Log [M] -5); 44861 RLU and 39719.3 RLU and 41641.6 RLU and 44808.6 RLU in assay [1] (Log [M] -5.52); 40028.9 RLU and 41209.2 RLU and 44508.4 RLU and 42764.7 RLU in assay [1] (Log [M] -6); 45202.8 RLU and 42879 RLU and 43685.4 RLU and 43335.2 RLU in assay [1] (Log [M] -6.52); 34782.9 RLU and 41719 RLU and 42179.9 RLU and 49034.7 RLU in assay [1] (Log [M] -7). Moreover, the RLU in assay [1] (Log [M] -7.52) is 38391.4 RLU and 46085.4 RLU and 42431.2 RLU and 46471.3 RLU; in assay [1] (Log [M] -8), 34384 RLU and 36270.3 RLU and 36577.6 RLU and 36064.3 RLU; in assay [1] (Log [M] -8.52), 22996.7 RLU and 25279.3 RLU and 24270.2 RLU and 27847.4 RLU; in assay [1] (Log [M] -9) it was 15401.9 RLU and 14513.8 RLU and 13368.9 RLU and 15735.7 RLU; in assay [1] (Log [M] -9.52), 5598.44 RLU and 5306.97 RLU and 6285.59 RLU and 6308.24 RLU; in assay [1] (Log [M] -10) it was 3715.22 RLU and 4002.15 RLU and 4645.49 RLU and 4239.25 RLU. Also, the RLU is 2896.7 RLU and 4230.19 RLU and 2168.81 RLU and 3355.8 RLU in assay [1] (Log [M] -10.52); 3218.37 RLU and 3864.72 RLU and 3165.51 RLU and 3694.07 RLU in assay [1] (Log [M] -11); 3357.3 RLU and 3231.96 RLU and 2141.63 RLU and 3882.85 RLU in assay [1] (Log [M] -11.52); 2935.97 RLU and 2547.86 RLU and 3902.48 RLU and 2470.84 RLU in assay [1] (Log [M] -12); 155.635 RLU and 159.8 RLU and 151.469 RLU and 140.758 RLU in assay [2] (Log [M] -7); 144.923 RLU and 169.322 RLU and 124.691 RLU and 162.181 RLU in assay [2] (Log [M] -7.52). Moreover, the RLU in assay [2] (Log [M] -8) is 135.402 RLU and 150.874 RLU and 144.923 RLU and 159.205 RLU; in assay [2] (Log [M] -8.52), 160.339 RLU and 176.195 RLU and 138.442 RLU and 190.541 RLU; in assay [2] (Log [M] -9), 217.723 RLU and 200.357 RLU and 226.784 RLU and 215.458 RLU; in assay [2] (Log [M] -9.52), 229.804 RLU and 201.867 RLU and 252.455 RLU and 293.228 RLU; in assay [2] (Log [M] -10), 297.759 RLU and 328.716 RLU and 225.273 RLU and 301.534 RLU; in assay [2] (Log [M] -10.52), 274.352 RLU and 297.759 RLU and 272.842 RLU and 312.86 RLU. For the same compound, the RLU in assay [2] (Log [M] -11) was 320.41 RLU and 317.39 RLU and 370.244 RLU and 303.044 RLU; in assay [2] (Log [M] -11.52) it was 343.062 RLU and 282.658 RLU and 298.514 RLU and 402.711 RLU; in assay [2] (Log [M] -12), 305.309 RLU and 268.312 RLU and 278.127 RLU and 297.759 RLU.
On to `O=C1Nc2ccc(-c3cc(C(F)(F)F)cc(C(F)(F)F)c3)cc2C(=O)N2CCN(C(=O)COc3ccc(OC(F)(F)F)cc3I)C[C@@H]12` [compound 6641], for which the RLU in assay [1] (Log [M] -4.52) is 12216.4 RLU and 11934 RLU; in assay [1] (Log [M] -5), 11869.4 RLU; in assay [3] (Log [M] -4.70), 1160 RLU; in assay [3] (Log [M] -8.99), 1160 RLU; in assay [4] (Log [M] -6.13), 1160 RLU; in assay [4] (Log [M] -7.56), 1320 RLU. Also, the RLU in assay [4] (Log [M] -8.52) and in assay [5] (Log [M] -6.61) was 1160 RLU each time.
FSH: the RLU is 9840 RLU and 10000 RLU in assay [6] (Log [M] -7.00); 9640 RLU and 9560 RLU in assay [6] (Log [M] -7.48); 9680 RLU and 9120 RLU in assay [6] (Log [M] -7.95); 9320 RLU and 9120 RLU in assay [6] (Log [M] -8.43); 6520 RLU and 6440 RLU in assay [6] (Log [M] -8.91); 1160 RLU and 720 RLU in assay [6] (Log [M] -9.39). Further, the RLU in assay [6] (Log [M] -9.86) was 480 RLU and 560 RLU; in assay [6] (Log [M] -10.34) it was 600 RLU and 520 RLU; in assay [6] (Log [M] -10.82) it was 600 RLU and 720 RLU; in assay [6] (Log [M] -11.29) it was 640 RLU and 600 RLU.
Consider TSH, for which the RLU in assay [5] (Log [M] -6.52) is 11800 RLU and 11240 RLU; in assay [5] (Log [M] -7.00) it was 11840 RLU and 12160 RLU; in assay [5] (Log [M] -7.48) it was 11440 RLU and 11640 RLU; in assay [5] (Log [M] -7.95) it was 11920 RLU and 12320 RLU; in assay [5] (Log [M] -8.43) it was 12240 RLU and 12480 RLU; in assay [5] (Log [M] -8.91), 12160 RLU and 11840 RLU. Besides, the RLU was 12040 RLU and 11800 RLU in assay [5] (Log [M] -9.39); 9400 RLU and 9680 RLU in assay [5] (Log [M] -9.86); 1800 RLU and 1960 RLU in assay [5] (Log [M] -10.34); 720 RLU and 760 RLU in assay [5] (Log [M] -10.82).
For hCG, the RLU in assay [4] (Log [M] -8.00) is 9560 RLU and 9280 RLU; in assay [4] (Log [M] -8.48) it was 9480 RLU and 9760 RLU; in assay [4] (Log [M] -8.95), 9640 RLU and 9760 RLU; in assay [4] (Log [M] -9.43), 9400 RLU and 8560 RLU; in assay [4] (Log [M] -9.91), 5640 RLU and 6200 RLU; in assay [4] (Log [M] -10.39) it was 1480 RLU and 1320 RLU. Moreover, the RLU was 760 RLU and 800 RLU in assay [4] (Log [M] -10.86); 760 RLU and 640 RLU in assay [4] (Log [M] -11.34); 720 RLU and 680 RLU in assay [4] (Log [M] -11.82); 720 RLU and 760 RLU in assay [4] (Log [M] -12.29).
